Reference: ChEMBL document CHEMBL1123005, “1-Azacycloalkyl-1,4-benzodiazepin-2-ones with antianxiety-antidepressant actions” (J Med Chem, 1985)

Assays:
[1] = test system: Mus musculus; assay: Acute toxicity was measured in mice after peroral administration; format: organism-based; conditions: in vivo, po
How it was run: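 Male DS mice, 20-26 g, given compound orally; mortality checked the day after treatment in groups of 10. LD50 by probit method, or by up-and-down method of Brownlee et al. (n = 5) where estimated.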

[2] = test system: Mus musculus; assay: Acute toxicity was measured in mice after peroral administration (425-553); conditions: in vivo, po

CN1CCC(N2C(=O)CN=C(c3ccccc3)c3cc(Cl)ccc32)CC1
LD50 [1]: 548 mg/kg

CN1CCC(N2C(=O)CN=C(c3ccccc3F)c3cc(F)ccc32)CC1
LD50 [1]: 267 mg/kg

CN1CCC(N2C(=O)CN=C(c3ccccc3F)c3cc(Cl)ccc32)CC1
LD50 [2]: 489 mg/kg

CN1CCC(N2C(=O)CN=C(c3ccccc3)c3ccccc32)CC1
LD50 [1]: 425 mg/kg
